This note sets out measurements from PMC4609183.

The chains behind the UniProt entries cited, without tags or fusion partners.
UniProt O60260, whole entry, chain 1 of 2: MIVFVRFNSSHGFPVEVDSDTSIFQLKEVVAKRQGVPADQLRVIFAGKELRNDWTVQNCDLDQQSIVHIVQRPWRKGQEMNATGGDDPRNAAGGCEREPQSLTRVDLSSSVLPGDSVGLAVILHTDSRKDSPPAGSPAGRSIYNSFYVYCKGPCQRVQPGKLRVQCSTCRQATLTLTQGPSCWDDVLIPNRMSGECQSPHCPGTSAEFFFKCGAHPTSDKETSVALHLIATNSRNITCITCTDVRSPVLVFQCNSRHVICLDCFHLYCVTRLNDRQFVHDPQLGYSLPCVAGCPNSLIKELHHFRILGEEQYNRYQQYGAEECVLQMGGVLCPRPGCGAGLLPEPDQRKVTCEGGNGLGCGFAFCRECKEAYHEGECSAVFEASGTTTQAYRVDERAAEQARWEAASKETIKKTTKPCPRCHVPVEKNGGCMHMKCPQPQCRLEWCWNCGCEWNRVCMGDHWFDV

In general, Kd refers to a measure of binding affinity in units of concentration.

In this assay the target is phosphoparkin/phosphoubiquitin complex (UniProt O60260). The assay is described as follows: ITC; phosphoparkin (35 μM) complexed with phosphoubiquitin titrated with UbcH7 or UbcH7∼Ub; 25°C; single-site model. A general note: In ITC the heat of successive injections is recorded.

On to “UbcH7 (from UniProt P68036 1-154) (enzyme)”, for which the Kd stood at 19 µM.
